The supplement of paper PMC11003180

Tests used:
Assay in all cases: drug sensitivity score (DSS) from 5-dose viability curve (DSS (area-based score, 0 = no response)); higher = more sensitive (stronger viability inhibition); extreme values may be limits of the assay
[1] = system: MDCK wild-type - doxycycline; details: doxycycline: none; 72 h
In short: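 Parental MDCK cells, grown without doxycycline, were seeded at 2000 cells/well into 384-well plates pre-spotted with an oncology library of 528 drugs at five doses (1-10,000 nM). After 72 h at 37 °C, CellTiter-Glo luminescence was read. Viability was scaled per plate between vehicle and positive controls, and drug sensitivity scores were derived from dose-response curve fits in the Breeze pipeline.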

[2] = system: MDCK p60AmotL2-inducible + doxycycline (p60AmotL2 expressing); details: doxycycline: 10 ng/mL; 72 h
In short: (§1)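 Parental MDCK cells and MDCK cells with doxycycline-inducible p60AmotL2, both given doxycycline at 10 ng/mL in the medium before plating, were dispensed at 2000 cells/well onto pre-spotted 384-well plates. The plates held an oncology library of 528 drugs at five doses (1-10,000 nM) and were incubated 72 h at 37 °C. Viability was read as CellTiter-Glo luminescence and scaled per plate between vehicle and positive controls. Drug sensitivity scores came from dose-response curve fits in the Breeze pipeline.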

[3] = system: MDCK wild-type + doxycycline; details: doxycycline: 10 ng/mL; 72 h
In short: as §1

Measured: drug sensitivity score

NCc1ccc(OCCCc2sc(-c3ccc4c(c3)/C(=N/Nc3nc5ccccc5s3)CCC4)nc2C(=O)O)cc1 [WEHI-539]
0: [1] | [2] | [3]
